In patent EP0415126B1, “Anti-dental plaque agents” (MITSUI NORIN CO., LTD., priority 1989, dated 1991):

System: glucosyltransferase
Experiment: Inhibition of water-insoluble glucan formation by crude glucosyltransferase (14C-sucrose, scintillation counting)
Type: biochemical, Streptococcus mutans OMZ 176
Details: Water-insoluble glucan formation vs control, 60 minutes at 37°C, pH 6.8
Method: Crude glucosyltransferase was refined from Streptococcus mutans OMZ 176 according to the method described by Mukasa and Slads in Infect. Immun., 8, 555 (1973) and 9, 419 (1974).
The above GTF, labeled sucrose and the tea polyphenol compounds were mixed together to the following final concentrations, and was regulated with a 50 mM phosphate buffer (with pH 6.8). GTF: 0.34 mg protein/ml 0.1 mM (¹⁴C) sucrose: 0.1 »Ci/»l Present agent: 1 to 10 mg/ml or 1 to 10 mM.
Twenty (20) »l of the mixture solution were subjected to a reaction for 60 minutes at 37°C. After the completion of the reaction, 5 »l of the reaction mixture and 5 »l of supernatant obtained by centrifugation of the reaction mixture at 5,500 x g for 3 minutes were applied to a filter paper respectively, and then developed with a developing solution of butanol-pyridine-water (6:4:3), followed by counting with a scintillation counter. The amount of water-insoluble glucan was found by a difference between the measurements of the reaction mixture and the supernatant. The GTF inhibiting ability is expressed in terms of the rate of inhibiting the formation of water-insoluble glucan with respect to a control to which the tea polyphenol compounds were not added.

Substance | Inhibition (%) (sample concentration 1.0 mM) | Inhibition (%) (sample concentration 10.0 mM)
(-)-Epigallocatechin | 13% | 25%
(-)-Epigallocatechin gallate | 42% | 75%
